This passage reports IC50 results from US9469597B2 (dated 2016).

Amino acid sequences for entries named in this document (tags omitted).
UniProt P27338, whole entry: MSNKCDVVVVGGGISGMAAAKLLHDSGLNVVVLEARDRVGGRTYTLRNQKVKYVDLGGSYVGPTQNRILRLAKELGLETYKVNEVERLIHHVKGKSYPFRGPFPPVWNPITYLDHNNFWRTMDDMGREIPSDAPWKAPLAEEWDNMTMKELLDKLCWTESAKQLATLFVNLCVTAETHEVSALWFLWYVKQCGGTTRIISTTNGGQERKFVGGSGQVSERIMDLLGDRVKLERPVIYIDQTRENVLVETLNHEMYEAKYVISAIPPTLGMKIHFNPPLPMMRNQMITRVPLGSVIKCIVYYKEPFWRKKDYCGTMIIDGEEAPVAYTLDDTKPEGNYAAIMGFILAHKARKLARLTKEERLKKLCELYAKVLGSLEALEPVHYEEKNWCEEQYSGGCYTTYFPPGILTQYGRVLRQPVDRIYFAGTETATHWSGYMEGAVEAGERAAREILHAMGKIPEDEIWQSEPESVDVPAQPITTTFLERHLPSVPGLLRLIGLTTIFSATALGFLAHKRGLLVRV
UniProt P21397, whole entry: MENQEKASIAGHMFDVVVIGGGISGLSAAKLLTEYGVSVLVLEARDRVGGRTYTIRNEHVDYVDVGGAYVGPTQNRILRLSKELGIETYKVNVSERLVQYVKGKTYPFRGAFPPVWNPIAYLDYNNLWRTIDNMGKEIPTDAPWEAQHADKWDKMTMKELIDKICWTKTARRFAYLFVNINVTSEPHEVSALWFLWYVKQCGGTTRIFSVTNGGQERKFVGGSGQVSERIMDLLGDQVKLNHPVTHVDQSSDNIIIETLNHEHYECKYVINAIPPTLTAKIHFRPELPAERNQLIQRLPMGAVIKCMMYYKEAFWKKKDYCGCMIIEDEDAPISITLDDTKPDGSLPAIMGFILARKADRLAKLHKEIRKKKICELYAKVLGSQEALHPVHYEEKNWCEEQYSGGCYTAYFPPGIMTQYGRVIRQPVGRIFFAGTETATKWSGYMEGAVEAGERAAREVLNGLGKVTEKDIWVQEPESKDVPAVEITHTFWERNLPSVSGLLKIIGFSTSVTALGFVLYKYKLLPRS

Assay [1] deals with Human recombinant monoamine oxidase MAO-B (Homo sapiens (Human), UniProt P27338). The assay is described as follows: Monoamine oxidase assay (kynuramine to 4-hydroxyquinoline fluorescence), MAO-B. Conditions: read-out: MAO-B (IC50-μM); Table 2. The assay is classed as biochemical.
For assay [2], the target named is Human recombinant monoamine oxidase MAO-A (Homo sapiens (Human), UniProt P21397). The assay is described as follows: Monoamine oxidase assay (kynuramine to 4-hydroxyquinoline fluorescence), MAO-A. The assay is classed as biochemical. As to conditions: read-out: MAO-A (IC50-μM); Table 2.

The structures appear in SMILES notation. Counter-ions that a name gives are not always drawn.

One may read the IC50 as the concentration that gives 50% inhibition. `NC1CCC(N[C@H]2C[C@@H]2c2cccnc2)CC1` (relative stereo) [Example 7, N1-((trans)-2-(pyridin-3-yl)cyclopropyl)cyclohexane-1,4-diamine hydrochloride]: the IC50 in assay [1] was above 100 µM.

On to `NC1CCC(N[C@H]2C[C@@H]2c2ccc(-c3cccc(C(F)(F)F)c3)nc2)CC1` (relative stereo) [Example 8, N1-((trans)-2-(6-(3-(trifluoromethyl)phenyl)pyridin-3-yl)cyclopropyl)cyclohexane-1,4-diamine hydrochloride], for which the IC50 in assay [2] was above 100 µM; in assay [1], 10.1 µM. For the molecule `NC1CCC(N[C@H]2C[C@@H]2c2ccc(-c3cccc(C(F)(F)F)c3)cc2)CC1` (relative stereo) [Example 9, N1-((trans)-2-(3′-(trifluoromethyl)-[1,1′-biphenyl]-4-yl)cyclopropyl)cyclohexane-1,4-diamine hydrochloride], the IC50 in assay [2] is around 50 µM. Same read-out and setting: the value for `NC1CCC(N[C@H]2C[C@@H]2c2ccc(OCc3ccccc3)cc2)CC1` (relative stereo) [Example 10, N1-((trans)-2-(4-(benzyloxy)phenyl)cyclopropyl)cyclohexane-1,4-diamine hydrochloride] was 1.64 µM. With `OC1CCC(N[C@H]2C[C@@H]2c2ccc(-c3cccc(C(F)(F)F)c3)nc2)CC1` (relative stereo) [Example 11, 4-(((trans)-2-(6-(3-(trifluoromethyl)phenyl)pyridin-3-yl)cyclopropyl)amino)cyclohexanol], the IC50 in assay [2] amounted to 32 µM; in assay [1] it was 6.8 µM. For `NC(=O)C1CCC(N[C@H]2C[C@@H]2c2ccc(-c3cccc(C(F)(F)F)c3)nc2)CC1` (relative stereo) [Example 12, 4-(((trans)-2-(6-(3-(trifluoromethyl)phenyl)pyridin-3-yl)cyclopropyl)amino)cyclohexanecarboxamide hydrochloride] the same measures were 25.2 µM and 2.5 µM. As for `CC(=O)NC1CCC(N[C@H]2C[C@@H]2c2ccc(-c3cccc(C(F)(F)F)c3)nc2)CC1` (relative stereo) [Example 13, N-(4-(((trans)-2-(6-(3-(trifluoromethyl)phenyl)pyridin-3-yl)cyclopropyl)amino)cyclohexyl)acetamide hydrochloride], in assay [1], the IC50 was 2.45 µM. As to `NC1CCCC(N[C@H]2C[C@@H]2c2ccccc2)C1` (relative stereo) [Example 18, N1-((trans)-2-phenylcyclopropyl)cyclohexane-1,3-diamine], the IC50 in assay [1] is above 100 µM. Regarding `NC1CC(N[C@H]2C[C@@H]2c2ccccc2)c2ccccc21` (relative stereo) [Example 20, N1-((trans)-2-phenylcyclopropyl)-2,3-dihydro-1H-indene-1,3-diamine], the IC50 in assay [2] was above 100 µM. In the case of `CC(C)(C)OC(=O)NC1CCC(N[C@H]2C[C@@H]2c2ccccc2)CC1` (relative stereo) [Example 23, Tert-butyl (4-(((trans)-2-phenylcyclopropyl)amino)cyclohexyl) carbamate], the IC50 in assay [1] was determined as 46.4 µM. `NC1CCC(N[C@H]2C[C@@H]2c2ccc(C3CC3)cc2)CC1` (relative stereo) [Example 40, N1-((trans)-2-(4-cylopropylphenyl)cyclopropyl)cyclohexane-1,4-diamine]: in assay [2], the IC50 was above 100 µM. For the molecule `NC1CCC(N[C@H]2C[C@@H]2c2ccc(-c3ccn[nH]3)cc2)CC1` (relative stereo) [Example 43, N1-((trans)-2-(4-(1H-pyrazol-5-yl)phenyl)cyclopropyl)cyclohexane-1,4-diamine], in assay [1], the IC50 is above 100 µM.

`NC1CCC(N[C@H]2C[C@@H]2c2ccc(-c3cccc(O)c3)s2)CC1` (relative stereo) [Example 44, 3-(5-((trans)-2-((4-aminocyclohexyl)amino)cyclopropyl)thiophen-2-yl)phenol]: the IC50 in assay [1] stood at 2.04 µM. Consider `NC1CCC(N[C@H]2C[C@@H]2c2cnc(-c3cccc(O)c3)s2)CC1` (relative stereo) [Example 45, 3-(5-((trans)-2-((4-aminocyclohexyl)amino)cyclopropyl)thiazol-2-yl)phenol], for which, in assay [2], the IC50 was 29.5 µM.

On to `N[C@@H]1CCN(C2CCC(N[C@H]3C[C@@H]3c3ccccc3)CC2)C1` (stereo in doubt) [Example 15, (R)-1-(4-(((trans)-2-phenylcyclopropyl)amino)cyclohexyl)pyrrolidin-3-amine trihydrochloride], for which the IC50 in assay [2] was above 100 µM. On the same count and under the same terms, then `COc1ccc(C2CC2NC2CCC(N)CC2)cc1` (centres unmarked) [Example 29, N1-(2-(4-methoxyphenyl)cyclopropyl)cyclohexane-1,4-diamine], with above 100 µM. Same read-out and setting: the value for `NC1CCC(NC2CC2c2ccc(O)cc2)CC1` (centres unmarked) [Example 30, 4-(2-((4-aminocyclohexyl)amino)cyclopropyl)phenol] was above 100 µM. Turning to `NC1CCC(NC2CC2c2ccc(F)c(F)c2)CC1` (centres unmarked) [Example 32, N1-(2-(3,4-difluorophenyl)cyclopropyl)cyclohexane-1,4-diamine], the IC50 in assay [1] was above 100 µM.

For the molecule `N[C@H]1CC[C@@H](N[C@H]2C[C@@H]2c2ccc(-c3cccc(C(F)(F)F)c3)cc2)CC1` [Example 36, (Cis)-N1-((1S,2R)-2-(3′-(trifluoromethyl)-[1,1′-biphenyl]-4-yl)cyclopropyl)cyclohexane-1,4-diamine], in assay [2], the IC50 turned out to be 10.7 µM. The same measure, in the same setting: then `N[C@H]1CC[C@H](N[C@H]2C[C@@H]2c2ccc(-c3cccc(C(F)(F)F)c3)cc2)CC1` [Example 37, (Trans)-N1-((1S,2R)-2-(3′-(trifluoromethyl)-[1,1′-biphenyl]-4-yl)cyclo-propyl)cyclohexane-1,4-diamine], with 14.6 µM; and `N[C@H]1CC[C@@H](N[C@@H]2C[C@H]2c2ccc(-c3cccc(C(F)(F)F)c3)cc2)CC1` [Example 38, (Cis)-N1-((1R,2S)-2-(3′-(trifluoromethyl)-[1,1′-biphenyl]-4-yl)cyclo-propyl)cyclohexane-1,4-diamine], with 26.8 µM. The same measure, in the same setting: then `N[C@H]1CC[C@H](N[C@@H]2C[C@H]2c2ccc(-c3cccc(C(F)(F)F)c3)cc2)CC1` [Example 39, (Trans)-N1-((1R,2S)-2-(3′-(trifluoromethyl)-[1,1′-biphenyl]-4-yl)cyclo-propyl)cyclohexane-1,4-diamine], with 26.3 µM. Take `Nc1ccc(S(=O)(=O)Nc2cccc(-c3ccc([C@H]4C[C@@H]4NC4CCC(N)CC4)cc3)c2)cn1` (some centres unmarked) [Example 51]: the IC50 in assay [1] is around 100 µM.
